T1: Biotin-GSAGGSTWGYPFHDGDYLNDE synthetic peptide (human TM4SF4 aa 126-140) (human, N-terminal biotin)
T1 construct: Immobilised on a streptavidin sensor chip as the SPR ligand; also called Biotin-hTM4SF4 aa 126-140; human TM4SF4-peptide (hTM4SF4 aa 126-140)
T1 peptide: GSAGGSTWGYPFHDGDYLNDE

B1: Hz2B7-1.1 humanized anti-TM4SF4 antibody (antibody, human IgG1, V domains shown)
VH: EITLKESGPTLVKPTQTLTLTCTFSGFSLSTYGIGVSWIRQPPGKALEWLAHIWWNDNKYYNTALKSRLTITKDTSKNQVVLTMTNMDPVDTATYYCARKEGSSAPFAYWGQGTLVTVSS
VL: DIVMTQSPDSLAVSLGERATINCKSSQSLLNSSNQKNYLAWYQQKPGQPPKLLIYFASTRESGVPDRFSGSGSGTDFTLTISLMQAEDVAVYYCQQHYRTPPTFGQGTKVEIK
notes: Tested as whole IgG from the pdCMV-dhfr vector (human IgG1 heavy constant, human kappa light constant); also called HzE2B7-1.1; HzE2B7-1.1(origin)
B2: Hz2B7-4.3 humanized anti-TM4SF4 antibody (HC W55Y, LC N31V) (antibody, V domains shown)
VH: B1 VH with W55Y
VL: B1 VL with N31V
notes: Whole IgG, human IgG1 / kappa constant regions; also called HzE2B7-4.3; HzE2B7-4.3(HC W55Y, LC N31V)
B3: Hz2B7-1.2 humanized anti-TM4SF4 antibody (LC N31F) (antibody, V domains shown)
VH: B1 VH
VL: B1 VL with N31F
notes: Whole IgG, human IgG1 / kappa constant regions from the pdCMV-dhfr vector; only VH and VL are tied to the antibody; also called HzE2B7-1.2; HzE2B7-1.2(LC N31F)

Changes are numbered by the printed parent chain. Numbers in names are those of the source.

The test addresses T1, Biotin-GSAGGSTWGYPFHDGDYLNDE synthetic …. Description: SPR, Biacore T200, biotin-peptide on streptavidin chip, antibody as analyte, 1:1 binding. The method, then: First, a streptavidin-conjugated sensor chip (Series S Senser Chip SA, Cytiva) was inserted into Biacore T200 (Cytiva), and activation buffer (1M NaCl, 50 mM NaOH) was flowed for 30 seconds, followed by HBS-EP buffer (Cytiva) to induce activation and stabilization of the sensor chip surface. […] The analyze antibodies of each concentration were flowed through the constructed ligand-bound streptavidin conjugated sensor chip at a rate of 30 ul/min for 480 seconds to induce binding, and then HBS-EP buffer solution was flowed at the same time and speed, and the degree to which the analyte antibody was dissociated from the ligand peptide was obtained in the form of a response unit. The association rate (Ka), dissociation rate (Kd), and equilibrium dissociation constant (KD, Kd/Ka) values were calculated using Biacore T200 evaluation software (Cytiva) by excluding the ligand-unbound sensor chip response values obtained in the same manner. As a calculation standard, the mass transfer fitting model for the interaction between the ligand peptide and the analyte antibody was analyzed using 1:1 binding.
In general terms: SPR reads the build-up and loss of mass on a sensor chip optically.
Molecule B1 came in with a Kd of 24.4 nM.
With B2, binding was characterised by a dissociation constant (Kd) of 81.7 nM.
B3 returned a Kd of 6.03 nM.

As usually defined, the Kd is the equilibrium constant for the complex coming apart.
